{"source": "patent US11779768B2", "about": "“Protein activity modification” (Impulse Dynamics NV, priority 2004, dated 2023)", "tested_on": "phospholamban serine-16", "assay": "Phosphorylation of PLB at serine-16 in failing LV tissue homogenate with/without protein kinase inhibitor and CCM signal (Western blot)", "type": "biochemical, dog", "details": "Control + PK Inhibitor (no CCM)"}
{"smiles": "CN[C@@H]1C[C@H]2O[C@@](C)([C@@H]1OC)n1c3ccccc3c3c4c(c5c6ccccc6n2c5c31)C(=O)NC4", "note": "[STAUROSPORIN]", "values": [{"measurement": "P-PLB serine-16, single sample", "setting": "10 sec", "value": 13.7}, {"measurement": "P-PLB serine-16, single sample", "setting": "30 sec", "value": 11.9}, {"measurement": "P-PLB serine-16, Av", "setting": "60 sec", "value": 12.4}]}
